According to published antibiotic growth screens (doi:10.1038/s41589-023-01349-8):
The other results are listed elsewhere or left out.

Tested on: A. baumannii ATCC 17978
Test: relative growth (fraction of control); higher = less inhibition
Details: 50 µM

Compound | relative growth
COCC#Cc1ccc2c(c1)O[C@H](CN(C)S(=O)(=O)c1cccc(OC)c1)[C@H](C)CN([C@@H](C)CO)S2(=O)=O | 1.05
O[C@@H]1[C@@H](O)[C@H](OC/C=C/c2ccccc2)O[C@H](CO[C@@H]2OC[C@@H](O)[C@@H](O)[C@@H]2O)[C@H]1O | 1.08
COc1cc2c(cc1OC)C1Cc3ccc(OC)c(OC)c3CN1CC2 (stereo unspecified) | 0.914
CC(=O)N[C@H]1[C@H]([C@H](O)[C@H](O)CO)OC(C(=O)O)=C[C@@H]1NC(=N)N | 0.909
CN(C)CCOC(=O)C(c1ccccc1)C1(O)CCCC1.Cl (stereo unspecified) | 1.09
CC1(C)C2CCC1(C)C(O)C2 (stereo unspecified) | 0.881
COc1ccc(-n2cc(C(=O)NO)nn2)cc1 | 1.12
O=C(Nc1cccc2cccnc12)[C@H]1[C@@H](c2ccc(Br)cc2)CC(=O)N1C(=O)OCc1ccccc1 | 1.19
CC(C)CC#Cc1ccc2c(c1)O[C@@H](CN(C)CC1CCOCC1)[C@@H](C)CN([C@H](C)CO)S2(=O)=O | 0.793
COCC(=O)N1C[C@H](C)[C@@H](OC)CN(C)C(=O)c2cc(NC(=O)Nc3cccc(F)c3)ccc2OC[C@H]1C | 1.01
NCC[C@@H]1CC[C@H](NC(=O)c2ccccc2F)[C@H](CO)O1 | 1.02
CN(N=O)C(=O)N[C@@H]1[C@@H](O)[C@H](O)[C@@H](CO)O[C@@H]1O | 0.91
COc1cccc(S(=O)(=O)Nc2ccc3c(c2)[C@@H]2C[C@@H](CC(=O)NCCc4ccccc4)O[C@@H](CO)[C@@H]2O3)c1 | 0.784
O=C(C[C@H]1CC[C@H]2[C@@H](COC[C@H](O)CN2Cc2cc(F)ccc2F)O1)N[C@@H]1CCN(Cc2ccccc2)C1 | 0.943
C=C(C)CNc1nc(-c2ccccc2)c(-c2ccccc2)s1 | 1.28
CCC(=O)N1CCC(C(=O)O)CC1 | 0.9
Cc1c(N(C)C)c(=O)n(-c2ccccc2)n1C | 1.12
Oc1c(Cl)cc(Cl)c(Cl)c1Cc1c(O)c(Cl)cc(Cl)c1Cl | 0.26
CN1CCN(C(=O)C[C@H]2CC[C@H]3[C@@H](COC[C@H](O)CN3C(=O)C3CC3)O2)CC1 | 0.851
COc1ccccc1C#Cc1cnc2c(c1)C(=O)N([C@H](C)CO)C[C@H](C)[C@@H](CN(C)C(=O)CC1CC1)O2 | 0.831
O=C(C[C@@H]1C[C@H]2c3cc(NC(=O)Nc4ccccc4)ccc3O[C@H]2[C@@H](CO)O1)NCCN1CCCCC1 | 0.93

Compound | relative growth
NCCCCCNC(=O)[C@H]1C[C@H]2C(=O)NCC(=O)N2[C@H]1c1cccc(OCCO)c1 | 1.08
C[C@@H](NC(=O)C[C@@H]1CC[C@H](NC(=O)CN2CCOCC2)[C@H](CO)O1)c1ccccc1 | 1.01
Cl.c1ccc(CC2=NCCN2)cc1 | 1.06
COCC(=O)Nc1ccc2c(c1)OC[C@H](C)N(Cc1ccccc1F)C[C@H](C)[C@@H](OC)CN(C)C2=O | 1.04
CC(C(=O)O)c1ccc2c(c1)[nH]c1ccc(Cl)cc12 (stereo unspecified) | 0.922
C[C@H](CCC(=O)NCC(=O)O)[C@H]1CCC2C3C(C[C@H](O)[C@@]21C)[C@@]1(C)CC[C@@H](O)CC1C[C@H]3O (stereo partly specified) | 1.21
CC(C)NC(=O)N(C)C[C@H]1Oc2cc(-c3ccccc3F)ccc2S(=O)(=O)N([C@H](C)CO)C[C@H]1C | 0.96
CCNC(=O)C[C@H]1CC[C@@H](NC(=O)C2CCOCC2)[C@H](CO)O1 | 1.09
COCCNC(=O)C[C@H]1CC[C@@H](NS(=O)(=O)c2ccc(C)cc2)[C@@H](CO)O1 | 1.01
COc1cc(C(=O)NCc2ccc(OCCN(C)C)cc2)cc(OC)c1OC.Cl | 0.975
O=C1c2c(O)cccc2C([C@@H]2O[C@H](CO)[C@@H](O)[C@H](O)[C@H]2O)c2cc(CO)cc(O)c21 (stereo partly specified) | 0.916
NC(=O)N1C(=O)[C@H]2[C@H](C1=O)[C@H]1C=C(c3ccc(CO)cc3)[C@@H]2[C@@H](C2CC2)N1Cc1cc2c(cc1Br)OCO2 | 1.01
CCC(C)[C@H]1O[C@]2(C=C[C@@H]1C)C[C@@H]1C[C@@H](C/C=C(\C)[C@@H](OC3C[C@H](OC)C(O[C@H]4C[C@H](OC)[C@@H](NC(C)=O)[C@H](C)O4)[C@H](C)O3)[C@@H](C)/C=C/C=C3\CO[C@@H]4[C@H](O)C(C)=C[C@@H](C(=O)O1)[C@]34O)O2 (stereo partly specified) | 0.956
Cc1ccc(CN2CCN(CCO)CC2)o1 | 0.967
CN(C)S(=O)(=O)c1ccc(C#N)cc1 | 0.933
CC(=O)C1C(=O)C=C(C)OC1=O (stereo unspecified) | 0.935
CO[C@H]1CN(C)C(=O)c2ccc(NS(=O)(=O)CC(F)(F)F)cc2OC[C@@H](C)N(Cc2nccs2)C[C@H]1C | 1.04
CCOC(=O)CNC(=O)c1cnn2cccnc12 | 0.949
O=C1N[C@@H](Cc2c[nH]c3ccccc23)COC(=O)[C@@H](Cc2ccc(F)cc2)CCC=CC[C@H]1CC(=O)N(CCO)Cc1ccccc1 | 1.34
COCC#Cc1ccc2c(c1)O[C@@H](CN(C)C(=O)c1ccccc1F)[C@@H](C)CN([C@H](C)CO)S2(=O)=O | 1.08
C=CC[C@@H](CC(=O)N[C@H](CO)Cc1ccccc1)C(=O)NC[C@H](OC(=O)[C@@H](CC=C)Cc1ccc(F)cc1)c1ccccc1 | 1.07

Compound | relative growth
CO[C@H](CN(C)S(=O)(=O)c1ccc(Cl)cc1)[C@H](C)CN([C@H](C)CO)S(=O)(=O)c1cccc(Cl)c1 | 0.825
CC[C@@]1(C)N[C@H](C(=O)O)CS1 | 0.991
CC1=C(C(=O)O)N2C(=O)[C@@H](NC(=O)[C@H](N)C3=CCC=CC3)C2SC1 (stereo partly specified) | 0.915
CN1CCN(C(=O)C[C@H]2CC[C@H]3[C@@H](COC[C@H](O)CN3Cc3ccc4c(c3)OCO4)O2)CC1 | 0.887
NCC[C@@H]1CC[C@@H](NC(=O)NC2CCCCC2)[C@H](CO)O1 | 1.11
COC(=O)[C@@H](C)N(C#N)c1nc(C)nc(C)n1 | 0.942
COc1ccc([C@@H]([C@H](Cc2ccccc2)OC(C)=O)N2C[C@@H](NC(=O)C(Cl)(Cl)Cl)[C@@H]3[C@H]([C@@H]2Cc2ccccc2)N(C)O[C@H]3c2ccccc2)cc1 | 0.966
O=C(C[C@H]1CC[C@@H](NC(=O)CN2CCOCC2)[C@H](CO)O1)NCCc1ccncc1 | 1.02
CC(C)C#Cc1ccc2c(c1)O[C@@H](CN(C)C(=O)c1cccc(F)c1)[C@H](C)CN([C@@H](C)CO)S2(=O)=O | 0.855
COc1ccc(COC[C@@]23Oc4ccccc4[C@@H](NC(=S)N2C)[C@H]3CO[Si](C)(C)C(C)(C)C)cc1 | 1.1
O=C(CN1CCOCC1)N[C@@H]1CC[C@H](CCNC(=O)C2CCCCC2)O[C@H]1CO | 0.967
Cc1ccc(S(=O)(=O)NCC[C@H]2CC[C@H](NS(=O)(=O)c3ccccc3Cl)[C@H](CO)O2)cc1 | 1.11
O=C(CN1CCOCC1)NCC[C@H]1CC[C@@H](NC(=O)c2ccc3c(c2)OCO3)[C@H](CO)O1 | 1.1
CCOC(=O)c1cc(C(=O)OCC)n(C)n1 | 0.96
COc1cccc(-c2ccc3c(c2)O[C@@H](CN(C)C(=O)C2CC2)[C@H](C)CN([C@@H](C)CO)S3(=O)=O)c1 | 1.02
COc1ccc(NC(=O)N[C@@H]2CC[C@H](CCNC(=O)CN3CCOCC3)O[C@@H]2CO)cc1 | 1.05
Cc1cc(O)c2c(c1)C(=O)c1cccc(O)c1C2=O | 0.819
NC(=O)c1cn(Cc2c(F)cccc2F)nn1 | 0.9
CC(C[N+](C)(C)C)OC(N)=O.[Cl-] (stereo unspecified) | 0.928
O=C(CN1CCOCC1)NCC[C@H]1CC[C@H](NC(=O)Nc2ccccc2)[C@@H](CO)O1 | 0.925
CC(C(=O)O)c1ccc(-c2ccccc2)c(F)c1 (stereo unspecified) | 0.937

Compound | relative growth
COc1ccc(CNC(=S)NCCO)cc1 | 0.757
O=C(OCC(O)CO)c1ccccc1Nc1ccnc2cc(Cl)ccc12 (stereo unspecified) | 0.932
C[N+](C)(C)CCCC[C@@H]1NC(=O)[C@H]2C[C@@H](C(=O)NCc3ccc(F)cc3)[C@@H](c3ccc(O)cc3)N2C1=O | 0.841
C[N+](C)(C)CCCCCCNC(=O)[C@H]1C[C@H]2C(=O)N3CCC[C@H]3C(=O)N2[C@H]1c1cccc(OCCO)c1 | 1.05
O=C(NO)c1ccc(C(=O)N/N=C/[C@H](O)[C@H](O)[C@@H](O)[C@@H](O)CO)cc1 | 1.14
COCC(=O)Nc1ccc2c(c1)C(=O)N(C)C[C@@H](OC)[C@@H](C)CN(C(=O)Cc1cccnc1)[C@@H](C)CO2 | 0.964
Br.NC(=O)C(c1ccccc1)(c1ccccc1)C1CCN(CCc2ccc3c(c2)CCO3)C1 (stereo unspecified) | 0.979
C[C@@H]1CN([C@H](C)CO)S(=O)(=O)c2ccc(Br)cc2O[C@@H]1CN(C)C(=O)C1CCCCC1 | 1.02
CN(C)C=C(C=[N+](C)C)c1[nH]ncc1N | 1.14
C=CCOC(=O)[C@@H]1[C@H]2C(=O)O[C@H](c3ccccc3)[C@H](c3ccccc3)N2[C@H](c2ccc(OCCOC(=O)[C@H]3C[C@H]4C(=O)N5CCC[C@H]5C(=O)N4[C@H]3c3ccc(O)cc3)cc2)[C@@]12C(=O)Nc1ccccc12 | 0.943
NS(=O)(=O)c1ccc(N2CCCC2=O)cc1 | 0.884
C[C@H](CO)N1C[C@H](C)[C@H](CN(C)S(=O)(=O)c2ccccc2F)Oc2cc(C#Cc3cccc(F)c3)ccc2S1(=O)=O | 1.05
CO[C@@H]1CN(C)C(=O)c2cc(NC(=O)C3CC3)ccc2OC[C@@H](C)N(C(=O)Cc2ccccn2)C[C@@H]1C | 1.03
COC(=O)C[C@H]1CC[C@H]2[C@@H](COC[C@H](O)CN2S(=O)(=O)c2ccc(F)cc2)O1 | 0.948
CC(C)Cc1ccc([C@@H](C)c2nc(-c3cccs3)no2)cc1 | 1.08
NC(=O)CN1C(=O)C(=O)c2cc(Cl)ccc21 | 0.967
c1ccc2c(c1)[nH]c1ncccc12 | 1.02
O=C(C[C@H]1CC[C@H](NS(=O)(=O)c2ccc(F)cc2)[C@H](CO)O1)NCc1ccc(Cl)c(Cl)c1 | 1
